The SangsterLogP compilation

Settings: pH 5.0

Molecule `COc1cc(OC)nc(NC(=O)NS(=O)(=O)c2ncccc2C(=O)N(C)C)n1` has a logD of -0.36.
